# Reference: patent publication US12157727B2, “Substituted tetrahydroquinolin compounds as indoleamine 2,3-dioxygenase (IDO) inhibitors” (Merck Sharp & Dohme LLC, priority 2019, dated 2024)
# By UniProt entry, the sequences of proteins in these tests, tags left out.
# UniProt P14902, whole entry: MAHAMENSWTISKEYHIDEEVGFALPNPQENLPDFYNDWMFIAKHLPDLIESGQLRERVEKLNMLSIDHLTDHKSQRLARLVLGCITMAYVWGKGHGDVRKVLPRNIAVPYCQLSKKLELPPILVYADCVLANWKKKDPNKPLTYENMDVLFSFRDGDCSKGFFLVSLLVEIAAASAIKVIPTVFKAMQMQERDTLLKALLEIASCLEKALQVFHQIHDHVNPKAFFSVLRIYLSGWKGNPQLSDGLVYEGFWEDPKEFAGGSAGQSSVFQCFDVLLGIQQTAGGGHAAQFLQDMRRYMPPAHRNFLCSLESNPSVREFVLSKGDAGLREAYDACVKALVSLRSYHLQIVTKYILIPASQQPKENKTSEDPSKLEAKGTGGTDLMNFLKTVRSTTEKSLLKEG
# Biological target: IDO1 (Homo sapiens, UniProt P14902)
# Experiment: IDO1 Cellular Assay in HeLa Cells Stimulated with IFNγ
# Format: cell-based
# Conditions: HeLa cells stimulated with IFNγ 100 ng/mL, 300 uM L-tryptophan, about 48 hours; read-out: IDO1 HeLa Cell Assay, IC50
row,SMILES,IC50 [nM]
1,"CC(c1ccc2c(c1)CCCN2C(=O)OC1CC1)c1nc2ncc(Cl)cc2[nH]1 (stereo not drawn) [Example 6, Cyclopropyl 6-(1-(6-chloro-1H-imidazo[4,5-b]pyridin-2-yl)ethyl)-3,4-dihydroquinoline-1(2H)-carboxylate]",4.26
2,"C[C@@H](c1ccc2c(c1)CCCN2C(=O)OC1CC1)c1nc2ncc(C#N)cc2[nH]1 [Example 7, cyclopropyl (S)-6-(1-(6-cyano-1H-imidazo[4,5-b]pyridin-2-yl)ethyl)-3,4-dihydroquinoline-1(2H)-carboxylate]",15.3
3,"Cc1nccc(N2CCCc3nc(C4(c5nc6ccc(Cl)cc6[nH]5)CC4)ccc32)n1 [Example 39, 6-[1-(6-chloro-1H-benzimidazol-2-yl)cyclopropyl]-1-(2-methylpyrimidin-4-yl)-1,2,3,4-tetrahydro-1,5-naphthyridine]",9.15
4,"Cc1nccc(N2CCCc3nc(C4(c5nc6cc(C(F)(F)F)cnc6[nH]5)CCC4)ccc32)n1 [Example 30, 1-(2-methylpyrimidin-4-yl)-6-(1-(6-(trifluoromethyl)-3H-imidazo[4,5-b]pyridin-2-vyl)cyclobutyl)-1,2,3,4-tetrahydro-1,5-naphthyridine]",4.37
5,"CC(c1ccc2c(n1)CCCN2C(=O)OC1CC1)c1nc2ccc(Cl)cc2[nH]1 (stereo not drawn) [Example 25, cyclopropyl 6-(1-(6-chloro-1H-benzo[d]imidazol-2-yl)ethyl)-3,4-dihydro-1,5-naphthyridine-1(2H)-carboxylate]",1.15

# Continued, values first:
row,IC50 [nM],SMILES
1,2.92,"Cc1nccc(N2CCCc3nc(C4(c5nc6cc(Cl)ccc6[nH]5)CCC4)ccc32)n1 [Example 34, 6-[1-(6-chloro-1H-benzimidazol-2-yl)cyclobutyl]-1-(2-methylpyrimidin-4-yl)-1,2,3,4-tetrahydro-1,5-naphthyridine]"
2,3.33,"FC(F)(F)c1cnc2[nH]c(C3(c4ccc5c(n4)CCCN5c4ccccn4)CCC3)nc2c1 [Example 31, 1-(pyridin-2-yl)-6-{1-[6-(trifluoromethyl)-3H-imidazo[4,5-b]pyridin-2-yl]cyclobutyl}-1,2,3,4-tetrahydro-1,5-naphthyridine]"
3,1.98,"COC(=O)N1CCCc2nc(C3(c4nc5cc(C(F)(F)F)cnc5[nH]4)CCC3)ccc21 [Example 18, methyl 6-(1-(6-(trifluoromethyl)-3H-imidazo[4,5-b]pyridin-2-yl)cyclobutyl)-3,4-dihydro-1,5-naphthyridine-1(2H),-carboxylate]"
4,4.25,"N#Cc1ccc2nc(C3(c4ccc5c(n4)CCCN5C(=O)OC4CC4)CCC3)[nH]c2c1 [Example 20, cyclopropyl 6-[1-(6-cyano-1H-benzimidazol-2-yl)cyclobutyl]-3,4-dihydro-1,5-naphthyridine-1(2H)-carboxylate]"
